# In publication PMC8126888 (RSC Medicinal Chemistry, 2020):
# Tested on: Leishmania infantum MHOM/MA(BE)/67/ITMAP263 intracellular amastigotes
# Settings: initial hits, Fig. 2
row,Structure (SMILES),Selectivity
1,COc1cc(S(=O)(=O)N(Cc2ccccc2)Cc2ccccc2)c(OC)cc1C [Compound 6],> 100
2,CCCCCOc1cc(C)c(Cl)cc1S(=O)(=O)NCc1cccs1 [Compound 7],> 100
3,CCCCCOc1cc(C)c(C)cc1S(=O)(=O)NC1CCCC1 [Compound 8],> 100
